The target in this assay is wild-type EZH2 (PRC2 enzyme) (Homo sapiens (Human), UniProt Q15910). The assay can be described thus: PRC2 enzyme assay on peptide substrate, wild-type EZH2 (H3K27me0 peptide, 3H-SAM Flashplate). In kind it is biochemical. The conditions noted are these: wild-type PRC2 4 nM, read-out: WT EZH2 IC50.

By UniProt entry, the sequences of proteins in these tests, tags left out.
UniProt Q15910, whole entry: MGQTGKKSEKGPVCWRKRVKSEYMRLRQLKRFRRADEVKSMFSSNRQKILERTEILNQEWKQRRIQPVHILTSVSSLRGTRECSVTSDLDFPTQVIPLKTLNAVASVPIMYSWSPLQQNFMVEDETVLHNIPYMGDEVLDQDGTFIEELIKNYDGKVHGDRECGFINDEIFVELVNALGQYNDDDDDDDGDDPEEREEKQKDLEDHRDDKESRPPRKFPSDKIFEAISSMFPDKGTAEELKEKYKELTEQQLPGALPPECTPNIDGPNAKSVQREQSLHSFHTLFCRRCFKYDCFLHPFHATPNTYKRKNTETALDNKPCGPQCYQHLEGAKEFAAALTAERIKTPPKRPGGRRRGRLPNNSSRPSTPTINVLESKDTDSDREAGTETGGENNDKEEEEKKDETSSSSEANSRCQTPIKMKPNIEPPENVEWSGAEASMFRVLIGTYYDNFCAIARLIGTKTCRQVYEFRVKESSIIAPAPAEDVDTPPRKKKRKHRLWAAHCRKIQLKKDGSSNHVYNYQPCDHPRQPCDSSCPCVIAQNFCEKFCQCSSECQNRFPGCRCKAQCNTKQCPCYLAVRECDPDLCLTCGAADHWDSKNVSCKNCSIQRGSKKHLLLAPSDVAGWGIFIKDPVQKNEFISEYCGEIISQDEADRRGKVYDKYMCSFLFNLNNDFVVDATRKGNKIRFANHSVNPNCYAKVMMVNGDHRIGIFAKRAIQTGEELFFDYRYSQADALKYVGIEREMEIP

As to `CCN(c1cc(Cl)cc(C(=O)NCc2c(CCN(C)C)cc3n(c2=O)NCC3)c1C)[C@H]1CC[C@H](N(C)C)CC1` [Compound 1, 5-chloro-3-(((trans)-4-(dimethylamino)cyclohexyl)(ethyl)amino)-N-((5-(2-(dimethylamino)ethyl)-7-oxo-1,2,3,7-tetrahydropyrazolo[1,5-a]pyridin-6-yl)methyl)-2-methylbenzamide], the IC50 came out at 0.075 µM.

For the origin of these results see patent publication US10150764B2, “Substituted benzene compounds” (Epizyme, Inc., priority 2013, dated 2018).
